How the values were obtained:
[1] = molecular target: 5-hydroxytryptamine receptor 2B (Homo sapiens, UniProt P41595)
[2] = molecular target: 5-hydroxytryptamine receptor 2A (Homo sapiens, UniProt P28223)
[3] = molecular target: 5-hydroxytryptamine receptor 2C (Homo sapiens, UniProt P28335)

Protein sequences, listed by entry. Tags and fused reporters are not part of them. Lines headed by an entry give the natural chain unless they say otherwise; changes in a name come on top.
UniProt P41595, whole entry: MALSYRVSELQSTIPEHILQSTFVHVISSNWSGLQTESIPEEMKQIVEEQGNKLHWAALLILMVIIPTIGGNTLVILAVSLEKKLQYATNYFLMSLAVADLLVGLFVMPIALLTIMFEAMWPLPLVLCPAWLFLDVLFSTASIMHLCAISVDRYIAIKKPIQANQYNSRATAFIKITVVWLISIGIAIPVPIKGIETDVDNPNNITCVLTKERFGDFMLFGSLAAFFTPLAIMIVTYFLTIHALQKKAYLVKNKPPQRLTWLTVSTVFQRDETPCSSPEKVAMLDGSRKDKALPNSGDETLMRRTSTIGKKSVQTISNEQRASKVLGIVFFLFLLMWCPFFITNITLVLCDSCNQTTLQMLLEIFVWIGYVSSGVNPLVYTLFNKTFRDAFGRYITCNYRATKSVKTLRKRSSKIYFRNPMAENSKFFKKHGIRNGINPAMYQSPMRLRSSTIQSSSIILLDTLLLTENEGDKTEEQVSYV
UniProt P28223, whole entry: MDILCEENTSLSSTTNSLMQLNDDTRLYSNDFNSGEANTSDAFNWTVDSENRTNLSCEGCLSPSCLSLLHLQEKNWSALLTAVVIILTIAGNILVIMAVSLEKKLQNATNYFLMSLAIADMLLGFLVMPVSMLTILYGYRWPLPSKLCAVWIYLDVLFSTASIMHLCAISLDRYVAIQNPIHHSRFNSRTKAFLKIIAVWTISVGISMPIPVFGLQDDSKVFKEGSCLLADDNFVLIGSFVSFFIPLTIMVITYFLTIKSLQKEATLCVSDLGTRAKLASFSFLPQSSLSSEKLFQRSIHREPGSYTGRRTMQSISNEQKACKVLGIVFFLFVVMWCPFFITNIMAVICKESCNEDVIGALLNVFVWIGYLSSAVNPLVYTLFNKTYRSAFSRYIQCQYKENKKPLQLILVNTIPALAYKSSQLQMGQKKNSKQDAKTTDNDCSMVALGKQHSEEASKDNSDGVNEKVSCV
UniProt P28335: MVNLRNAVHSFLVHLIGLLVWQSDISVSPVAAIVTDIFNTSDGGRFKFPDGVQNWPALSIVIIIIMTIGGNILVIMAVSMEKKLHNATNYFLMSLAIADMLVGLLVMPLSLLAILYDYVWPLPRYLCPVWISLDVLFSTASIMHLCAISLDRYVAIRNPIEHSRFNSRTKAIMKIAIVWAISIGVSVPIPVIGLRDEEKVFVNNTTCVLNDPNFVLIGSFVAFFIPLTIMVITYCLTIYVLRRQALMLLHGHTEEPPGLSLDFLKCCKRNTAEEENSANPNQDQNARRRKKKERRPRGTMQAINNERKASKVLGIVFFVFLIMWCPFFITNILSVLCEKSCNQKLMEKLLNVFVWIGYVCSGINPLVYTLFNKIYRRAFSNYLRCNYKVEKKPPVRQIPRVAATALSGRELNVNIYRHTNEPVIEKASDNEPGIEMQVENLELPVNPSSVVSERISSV

| Compound | Ki [1] [nM] | Ki [2] [nM] | Ki [3] [nM] |
| --- | --- | --- | --- |
| CC(N)Cc1c[nH]c2ccc(OCc3cccs3)cc12 (centres undefined) [NSC_5311036] | 1.07 | – | – |
| Clc1cccc(N2CCNCC2)c1 [mCPP] | 63.1 | 224 | 81.3 |

Source: BindingDB's records for doi:10.1038/sj.bjp.0702751 (Cerebrus, 1999)
